Source: patent publication US11219623B2, “Inflammasome inhibition for the treatment of Parkinson's disease, Alzheimer's disease and multiple sclerosis” (University of Kentucky Research Foundation, priority 2015, dated 2022)

Amino acid sequences for entries named in this document (tags omitted). A change or cut given only in a name is not applied to a line headed by its entry.
UniProt Q99572: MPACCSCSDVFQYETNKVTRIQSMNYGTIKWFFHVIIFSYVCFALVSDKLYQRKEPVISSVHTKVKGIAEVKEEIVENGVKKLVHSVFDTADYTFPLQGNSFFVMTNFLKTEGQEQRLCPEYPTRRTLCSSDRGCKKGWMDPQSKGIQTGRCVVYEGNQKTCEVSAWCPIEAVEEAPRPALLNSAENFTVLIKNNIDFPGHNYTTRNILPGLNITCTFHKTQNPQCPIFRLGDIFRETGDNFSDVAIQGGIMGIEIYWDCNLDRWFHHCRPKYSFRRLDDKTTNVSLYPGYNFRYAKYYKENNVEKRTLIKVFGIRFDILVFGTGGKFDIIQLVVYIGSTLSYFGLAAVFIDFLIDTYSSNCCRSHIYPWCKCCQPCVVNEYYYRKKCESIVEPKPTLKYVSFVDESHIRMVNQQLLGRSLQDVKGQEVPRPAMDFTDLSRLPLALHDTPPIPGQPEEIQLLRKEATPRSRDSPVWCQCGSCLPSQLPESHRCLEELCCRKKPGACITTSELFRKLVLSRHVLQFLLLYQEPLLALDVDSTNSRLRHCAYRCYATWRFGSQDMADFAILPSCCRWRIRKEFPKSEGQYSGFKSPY

Tests used:
mtDNA = details: 50 μM; four days; relative to DMSO
P2X7 receptor = P2X7 receptor (Homo sapiens, UniProt Q99572); assay type: cell-based; design: THP-1 cells differentiated into macrophages by PMA allowed entry of the large fluorescent dye Yo-Pro 1; endogenous in cells; host or cells: PMA-differentiated THP-1 cells; details: THP-1 macrophages; fluorescence (RFU)
From the text: To prepare FIG. 17, THP-1 cells differentiated into macrophages by PMA allowed entry of the large fluorescent dye Yo-Pro 1, in an assay for P2X7 receptor activity. […] Indeed, FIG. 17 provides the results of the fluorescence measurement in relative fluorescence units (RFU, y-axis).

## Cc1cn([C@H]2C=C[C@@H](CO)O2)c(=O)[nH]c1=O [d4T, 2′3′ dideoxythymidine]
mtDNA
  relative quantity of mtDNA (mtDNA depletion): exhibit mtDNA depletion
P2X7 receptor
  Yo-Pro entry induced by ATP: dose-dependently reduced Yo-Pro entry
